Earlier results on 1 substance are cited in paper PMC5218887 (Neurochemistry International, 2017).

Sequences of proteins named here, by UniProt entry; tags and fusion partners are left off.
UniProt P32245, whole entry, species assumed: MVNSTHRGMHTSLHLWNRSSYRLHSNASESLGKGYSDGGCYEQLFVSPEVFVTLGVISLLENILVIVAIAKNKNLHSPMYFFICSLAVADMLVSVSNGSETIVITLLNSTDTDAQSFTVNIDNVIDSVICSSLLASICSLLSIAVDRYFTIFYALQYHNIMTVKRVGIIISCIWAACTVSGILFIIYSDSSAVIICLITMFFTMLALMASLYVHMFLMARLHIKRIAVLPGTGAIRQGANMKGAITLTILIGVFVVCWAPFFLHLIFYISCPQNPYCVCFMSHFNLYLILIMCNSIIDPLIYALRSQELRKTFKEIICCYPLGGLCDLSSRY

This data set deals with MC4R (Homo sapiens, UniProt P32245). The conditions noted are these: ref Pritchard et al., 2004; cited from earlier work.

Consider “γ1-melanocyte stimulating hormone [γ1-MSH]”, for which the “activity on the MC4R” value was “did not have activity”.
